Literature values as cited in patent US20210206875A1, “ERBB-2 TARGETING AGENT AND A BISPECIFIC ANTIBODY WITH ANTIGEN-BINDING SITES THAT BIND AN EPITOPE ON AN EXTRACELLULAR PART OF ERB-2 AND ERBB-3, FOR TREATMENT OF AN INDIVIDUAL WITH AN ERBB-2, ERBB-2/ERBB-3 POSITIVE TUMOUR” (Merus N.V., priority 2017, published 2021).

Settings: adjuvant setting with DOX; cited from earlier work

Substance: trastuzumab
- risk for developing asymptomatic cardiac dysfunction: about 25%
